## AlphaSeq binding of Ab-91 heavy chain variants to a spike HR2 peptide

Antigen: PDVDLGDISGINAS, a 14-residue peptide of the SARS-CoV-2 spike HR2 region.

Each scFv is VL, a (GGGGS)3 linker, VH, as in the parent Ab-91, and differs from it in the CDRs of the heavy chain only.
VL: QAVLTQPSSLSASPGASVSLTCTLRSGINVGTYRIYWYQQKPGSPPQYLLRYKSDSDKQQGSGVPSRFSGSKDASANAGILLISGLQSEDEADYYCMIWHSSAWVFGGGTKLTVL
VH: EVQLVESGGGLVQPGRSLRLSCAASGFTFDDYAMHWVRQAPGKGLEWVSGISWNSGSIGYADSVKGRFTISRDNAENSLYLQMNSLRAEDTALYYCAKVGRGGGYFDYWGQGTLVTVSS

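Variants in AAYL51 differ from the parent at up to three CDR positions; double and triple changes were sampled at random. The scFvs were displayed on barcoded MATa yeast, the peptide on MATalpha yeast. After mating in shaken culture at 30 °C for 16 h, diploids were selected and their barcode pairs sequenced. Scores were corrected for input abundance and mapped to Kd with protein pairs of known affinity run in the same pool. The assay was run in three technical replicates.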

Each variant's VH is given in full.
Numbers give log10(Kd / nM), so 0 is 1 nM and 3 is 1 µM. Smaller is tighter.
Replicates are averaged; those with no signal do not enter the mean.
A pair that was not seen in that replicate is written "n.d."; this usually means weak binding, but a binder can also be missed.

VH	log10 Kd, replicates	mean log10 Kd (nM)	empty controls
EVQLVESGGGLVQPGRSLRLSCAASGFTFDDYAMHWVRQAPGKGLEWVSGVSVNSGSIGYADSVKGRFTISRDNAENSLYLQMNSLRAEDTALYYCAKVGWGGGYFDYWGQGTLVTVSS	n.d. / 4.51 / 3.35	3.93	0 of 9
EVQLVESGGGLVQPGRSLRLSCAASGFWFDDYAMHWVRQAPGKGLEWVSGISWNSGSIGYADSVTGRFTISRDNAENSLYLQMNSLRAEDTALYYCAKVGRGGGYFDYWGQGTLVTVSS	2.08 / 2.09 / 2.67	2.28	3 of 9 (4.24)
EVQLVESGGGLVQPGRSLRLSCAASGFTFQDYAMHWVRQAPGKGLEWVSIISWNSGSSGYADSVKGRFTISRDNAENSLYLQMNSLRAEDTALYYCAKVGRGGGYFDYWGQGTLVTVSS	3.64 / n.d. / n.d.	3.64	3 of 9 (4.28)
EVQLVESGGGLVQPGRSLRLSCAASGFMFDDYAMHWVRQAPGKGLEWVSGITWYSGSIGYADSVKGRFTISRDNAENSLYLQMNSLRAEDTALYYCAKVGRGGGYFDYWGQGTLVTVSS	4.80 / 4.40 / 5.63	4.94	7 of 9 (5.20)
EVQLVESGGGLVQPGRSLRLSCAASGFTFDDYAMYWVRQAPGKGLEWVSGISNNSGSSGYADSVKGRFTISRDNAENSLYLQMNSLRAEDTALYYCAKVGRGGGYFDYWGQGTLVTVSS	4.96 / n.d. / n.d.	4.96	0 of 9
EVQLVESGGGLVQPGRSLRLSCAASGFFFDDYAMHWVRQAPGKGLEWVSGISWNSGSIGYADVVKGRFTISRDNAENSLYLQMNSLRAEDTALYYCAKVGRGGGYFDYWGQGTLVTVSS	n.d. / n.d. / n.d.	n.d.	3 of 9 (4.23)
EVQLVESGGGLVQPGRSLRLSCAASGFPFFDYAMHWVRQAPGKGLEWVSGISWNSGSIGHADSVKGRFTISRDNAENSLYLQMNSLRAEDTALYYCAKVGRGGGYFDYWGQGTLVTVSS	3.40 / n.d. / n.d.	3.40	2 of 9 (4.59)
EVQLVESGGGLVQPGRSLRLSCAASGFTFDDYAMHWVRQAPGKGLEWVSGISWNSGSICYADLVKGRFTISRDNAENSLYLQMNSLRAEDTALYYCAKVGRGGGVFDYWGQGTLVTVSS	n.d. / n.d. / n.d.	n.d.	1 of 9 (3.02)
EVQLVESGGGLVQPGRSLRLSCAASGFTFDDYAMHWVRQAPGKGLEWVSGHSDNSGSIGYADHVKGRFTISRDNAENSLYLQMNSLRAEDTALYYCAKVGRGGGYFDYWGQGTLVTVSS	n.d. / n.d. / n.d.	n.d.	1 of 9 (4.57)
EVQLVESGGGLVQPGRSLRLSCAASVFTFDDYAEHWVRQAPGKGLEWVSGISNNSGSIGYADSVKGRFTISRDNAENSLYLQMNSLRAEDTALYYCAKVGRGGGYFDYWGQGTLVTVSS	5.75 / n.d. / n.d.	5.75	0 of 9
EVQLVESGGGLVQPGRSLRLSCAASGFTFDDYAMHWVRQAPGKGLEWVSCISWSSGSIGYAHSVKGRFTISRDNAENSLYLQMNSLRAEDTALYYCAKVGRGGGYFDYWGQGTLVTVSS	n.d. / n.d. / n.d.	n.d.	3 of 9 (4.63)
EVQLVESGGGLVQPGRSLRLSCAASGFTFDDYAMHWVRQAPGKGLEWVSGISWESTSIGYADSVKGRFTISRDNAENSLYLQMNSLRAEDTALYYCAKVGRGGGYFDYWGQGTLVTVSS	2.29 / 2.24 / 2.06	2.20	5 of 9 (4.30)
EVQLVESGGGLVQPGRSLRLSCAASGSTFDDYAMHWVRQAPGKGLEWVSGISWNTGSIGYADSVKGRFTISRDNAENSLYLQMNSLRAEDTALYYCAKVGRGGGYFMYWGQGTLVTVSS	n.d. / n.d. / n.d.	n.d.	4 of 9 (4.57)
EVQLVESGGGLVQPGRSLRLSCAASGFTFDDYAMHWVRQAPGKGLEWVSGISWQSGSIGYPDSVKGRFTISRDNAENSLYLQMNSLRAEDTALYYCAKVGRGGGYFDYWGQGTLVTVSS	4.40 / n.d. / n.d.	4.40	1 of 9 (4.68)
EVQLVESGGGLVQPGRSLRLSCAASGFTFDDYAMQWVRQAPGKGLEWVSGISWNSGSIGYADSYKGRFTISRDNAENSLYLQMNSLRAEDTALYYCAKVGRGGGYFGYWGQGTLVTVSS	n.d. / n.d. / n.d.	n.d.	0 of 9
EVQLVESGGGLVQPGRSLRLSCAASGLTFDDYAMHWVRQAPGKGLEWVSGISWNSGSIGYADSVKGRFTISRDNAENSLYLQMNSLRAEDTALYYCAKVGFGGGYFDYWGQGTLVTVSS	3.25 / 3.85 / 3.67	3.59	6 of 9 (5.20)
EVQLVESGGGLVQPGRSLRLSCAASGCTFDDYAMHWVRQAPGKGLEWVSGISWNSGSIGYADSVKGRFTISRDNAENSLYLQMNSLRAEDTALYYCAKVGFGGGYFSYWGQGTLVTVSS	n.d. / 5.98 / n.d.	5.98	2 of 9 (4.51)
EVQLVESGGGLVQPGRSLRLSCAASGFTFDKYAMGWVRQAPGKGLEWVSGISWNSGSNGYADSVKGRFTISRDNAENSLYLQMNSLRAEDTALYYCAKVGRGGGYFDYWGQGTLVTVSS	n.d. / n.d. / n.d.	n.d.	1 of 9 (4.76)

Extract of 2 entries:

| VH | log10 Kd, replicates | mean log10 Kd (nM) | empty controls |
|---|---|---|---|
| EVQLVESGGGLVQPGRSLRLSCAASGFTFDDYAMHWVRQAPGKGLEWVSGHSDNSGSIGYADHVKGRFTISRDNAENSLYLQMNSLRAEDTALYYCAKVGRGGGYFDYWGQGTLVTVSS | n.d. / n.d. / n.d. | n.d. | 1 of 9 (4.57) |
| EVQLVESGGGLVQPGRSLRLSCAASGFTFDDYAMHWVRQAPGKGLEWVSGISWESTSIGYADSVKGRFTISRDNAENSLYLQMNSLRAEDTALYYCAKVGRGGGYFDYWGQGTLVTVSS | 2.29 / 2.24 / 2.06 | 2.20 | 5 of 9 (4.30) |

Background: pairings of library AAYL51 with three empty control strains gave a value in 21% of cases (median 4.54, 5th percentile 3.26). Values in that range, when seen in few replicates, are hard to tell from nonspecific mating. For each scFv, signals with the empty controls are counted beside the result, with their mean in brackets.
For reference, the parent read 1.86 as the reference entry and 0.88 as a member of this library.

The measurements come from Engelhart et al. 2022 (doi:10.1038/s41597-022-01779-4) through the FLAb antibody collection.